Source: PubChem BioAssay (NCI)
Only a part is listed here, and it is no random draw.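 Note: values are percent growth. 100 is the growth of untreated cells, values between 100 and 0 indicate rising inhibition; between -100 and 0 indicates cell death.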 Activity calls are given as the source filed them. How the source made its calls: active means growth percent below 10; inactive means the rest.

Experiments:
Experiment in all cases: NCI-60 one-dose screen, 48 h (100 = growth as untreated, 0 = no growth, -100 = all killed)
Details in all cases: 10 µM unless noted
NCI-H23 lung = tested on: NCI-H23 lung
NCI-H226 lung = tested on: NCI-H226 lung
HOP-62 NSCLC = tested on: HOP-62 NSCLC
NCI-H460 lung = tested on: NCI-H460 lung
HOP-92 NSCLC = tested on: HOP-92 NSCLC
NCI-H522 lung = tested on: NCI-H522 lung
A549/ATCC NSCLC = tested on: A549/ATCC NSCLC
786-0 renal = tested on: 786-0 renal
COLO 205 colon = tested on: COLO 205 colon
DU-145 prostate = tested on: DU-145 prostate
K-562 leukemia = tested on: K-562 leukemia
MALME-3M melanoma = tested on: MALME-3M melanoma
MDA-MB-231 breast = tested on: MDA-MB-231 breast
RXF 393 renal = tested on: RXF 393 renal
SF-268 CNS = tested on: SF-268 CNS
SF-295 CNS = tested on: SF-295 CNS
SF-539 CNS = tested on: SF-539 CNS
UACC-257 melanoma = tested on: UACC-257 melanoma
M14 melanoma = tested on: M14 melanoma
NCI-H322M lung = tested on: NCI-H322M lung

Measured: growth

CCN(CCCl)C1c2ccccc2-c2ccccc21
inactive: NCI-H23 lung 95.9% | NCI-H226 lung 95.7% | HOP-62 NSCLC 94.7% | NCI-H460 lung 100% | HOP-92 NSCLC 91.3% | NCI-H522 lung 89.9% | A549/ATCC NSCLC 91.3% | 786-0 renal 104% | COLO 205 colon 102% | DU-145 prostate 102% | K-562 leukemia 100% | MALME-3M melanoma 88.2% | MDA-MB-231 breast 98.6% | RXF 393 renal 102% | SF-268 CNS 102% | SF-295 CNS 99.7% | SF-539 CNS 103% | UACC-257 melanoma 94% | M14 melanoma 97%

CCCC1OP(=O)(Nc2ccccc2)OCC1CC (configuration not stated)
inactive: NCI-H23 lung 92.8% | NCI-H226 lung 107% | HOP-62 NSCLC 102% | NCI-H460 lung 103% | HOP-92 NSCLC 89.6% | A549/ATCC NSCLC 95.1% | 786-0 renal 106% | COLO 205 colon 104% | DU-145 prostate 106% | K-562 leukemia 107% | MDA-MB-231 breast 100% | RXF 393 renal 122% | SF-268 CNS 98.8% | SF-295 CNS 98.8% | SF-539 CNS 101% | UACC-257 melanoma 101% | M14 melanoma 105%

COC(=O)C1(C)COP(=O)(N2CCCC2)OC1 (configuration not stated)
inactive: NCI-H23 lung 98.6% | NCI-H322M lung 92.4% | HOP-62 NSCLC 106% | NCI-H460 lung 107% | HOP-92 NSCLC 107% | NCI-H522 lung 93.3% | A549/ATCC NSCLC 108% | 786-0 renal 99.4% | COLO 205 colon 108% | DU-145 prostate 111% | K-562 leukemia 94.3% | MALME-3M melanoma 100% | MDA-MB-231 breast 115% | RXF 393 renal 118% | SF-268 CNS 97.5% | SF-295 CNS 111% | SF-539 CNS 107% | UACC-257 melanoma 100% | M14 melanoma 99.1%

Nc1ccc(CCCCOc2ccccc2)cc1
inactive: NCI-H23 lung 70.9% | NCI-H322M lung 102% | HOP-62 NSCLC 97% | NCI-H460 lung 91.4% | HOP-92 NSCLC 62% | NCI-H522 lung 66.2% | A549/ATCC NSCLC 96.7% | 786-0 renal 81.3% | COLO 205 colon 106% | DU-145 prostate 88.8% | K-562 leukemia 63.3% | MALME-3M melanoma 98% | MDA-MB-231 breast 80.4% | RXF 393 renal 83.5% | SF-268 CNS 65.9% | SF-295 CNS 99.9% | SF-539 CNS 86.3% | UACC-257 melanoma 96.4% | M14 melanoma 98.2%

CN(CCCl)CCC(=O)c1ccccc1
inactive: NCI-H23 lung 98.9% | NCI-H226 lung 99.3% | HOP-62 NSCLC 101% | NCI-H460 lung 98.2% | HOP-92 NSCLC 111% | NCI-H522 lung 87.5% | A549/ATCC NSCLC 101% | 786-0 renal 98.2% | COLO 205 colon 113% | DU-145 prostate 97.4% | K-562 leukemia 82.3% | MALME-3M melanoma 103% | MDA-MB-231 breast 110% | RXF 393 renal 101% | SF-268 CNS 90.3% | SF-295 CNS 99% | SF-539 CNS 102% | UACC-257 melanoma 102% | M14 melanoma 89%

[N-]=[N+]=NC(=O)c1cccc([N+](=O)[O-])c1
inactive: NCI-H23 lung 51.8% | NCI-H226 lung 79.8% | NCI-H322M lung 96.7% | HOP-62 NSCLC 91.4% | NCI-H460 lung 42.4% | NCI-H522 lung 36.8% | 786-0 renal 77.8% | COLO 205 colon 107% | DU-145 prostate 80.6% | K-562 leukemia 41.2% | MALME-3M melanoma 82.3% | MDA-MB-231 breast 86.8% | RXF 393 renal 101% | SF-268 CNS 96.8% | SF-295 CNS 17.6% | SF-539 CNS 88.3% | UACC-257 melanoma 87% | M14 melanoma 76.8%

NC(=O)Nc1ccc([As](=O)(O)O)cc1
inactive: NCI-H23 lung 103% | NCI-H226 lung 113% | NCI-H460 lung 110% | HOP-92 NSCLC 102% | A549/ATCC NSCLC 98.8% | 786-0 renal 103% | COLO 205 colon 110% | DU-145 prostate 121% | MALME-3M melanoma 109% | MDA-MB-231 breast 109% | RXF 393 renal 113% | SF-268 CNS 114% | SF-295 CNS 98.2% | SF-539 CNS 105% | UACC-257 melanoma 103% | M14 melanoma 109%

O=P(O)(O)F
inactive: NCI-H226 lung 102% | NCI-H322M lung 103% | HOP-62 NSCLC 105% | NCI-H460 lung 109% | HOP-92 NSCLC 98.6% | NCI-H522 lung 102% | A549/ATCC NSCLC 97.3% | 786-0 renal 107% | COLO 205 colon 132% | MALME-3M melanoma 100% | MDA-MB-231 breast 103% | RXF 393 renal 111% | SF-268 CNS 105% | SF-295 CNS 93.6% | SF-539 CNS 116% | UACC-257 melanoma 95.9% | M14 melanoma 111%

OC(CNCCCl)C(O)C(O)C(O)CNCCCl (configuration not stated)
inactive: NCI-H23 lung 115% | NCI-H322M lung 105% | HOP-62 NSCLC 105% | NCI-H460 lung 88.6% | HOP-92 NSCLC 99.2% | NCI-H522 lung 101% | A549/ATCC NSCLC 94.2% | 786-0 renal 106% | COLO 205 colon 107% | DU-145 prostate 99.7% | K-562 leukemia 98.9% | MALME-3M melanoma 93.1% | MDA-MB-231 breast 101% | RXF 393 renal 97.4% | SF-268 CNS 103% | SF-539 CNS 92.2% | UACC-257 melanoma 93.7% | M14 melanoma 93.2%

COC(=O)N(C)[N+](=O)[O-]
inactive: NCI-H23 lung 110% | NCI-H226 lung 99% | NCI-H322M lung 94.6% | HOP-62 NSCLC 108% | NCI-H460 lung 112% | A549/ATCC NSCLC 99.4% | 786-0 renal 100% | COLO 205 colon 128% | DU-145 prostate 118% | K-562 leukemia 112% | MALME-3M melanoma 102% | MDA-MB-231 breast 109% | RXF 393 renal 99.1% | SF-268 CNS 125% | SF-295 CNS 103% | SF-539 CNS 97.3% | UACC-257 melanoma 93.6% | M14 melanoma 99.5%

CSc1ccc(Nc2c([N+](=O)[O-])cc([N+](=O)[O-])cc2[N+](=O)[O-])cc1
inactive: NCI-H23 lung 79.4% | NCI-H226 lung 43.5% | NCI-H322M lung 87.6% | NCI-H460 lung 58.6% | NCI-H522 lung 15.4% | A549/ATCC NSCLC 71% | 786-0 renal 77.8% | COLO 205 colon 32% | DU-145 prostate 92.3% | K-562 leukemia 26.2% | MALME-3M melanoma 82.5% | MDA-MB-231 breast 66.6% | RXF 393 renal 64.9% | SF-268 CNS 50.7% | SF-539 CNS 86.8% | UACC-257 melanoma 47% | M14 melanoma 99.3%
